Publication PMC5502072, “Safety, tolerability and pharmacokinetics of the fibroblast growth factor receptor inhibitor AZD4547 in Japanese patients with advanced solid tumours: a Phase I study” (Investigational New Drugs, 2017)
Values joined by “and” are separate entries in the source; they are usually repeats but may differ in a detail not shown here. Equal entries are not always repeated.

Legend:
[1] = Urinary pharmacokinetics after multiple dosing; format: in vivo, human; details: arithmetic mean (SD)
Experimental: Blood samples for PK analysis were collected pre-dose and at defined intervals up to 96 h following single dosing, and up to 24 h following multiple dosing. Urine samples were also collected during the 24 h after multiple dosing in order to perform urinary PK assessments. For multiple dosing, the 80 mg bid dosing level was evaluated using combined data from patients in both Part A and Part B, as FGFR amplification status was unlikely to have a significant impact on PK. Concentrations of AZD4547 in human plasma and urine were determined using a validated high-performance liquid chromatography–tandem mass spectrometry method at PRA International (Assen, The Netherlands). PK parameters were analysed by standard non-compartmental methods using WinNonlin software (Pharsight Corporation, Mountain View, CA, USA).

[2] = Plasma pharmacokinetics after single and multiple oral dosing (HPLC-MS/MS, non-compartmental); format: in vivo, human; details: for AUC / AUC0–t / Cmax / Dose-normalized AUC / Dose-normalized Cmax: geometric mean (CV%); for tmax: median
[3] = Part A and Part B, 80 mg bid (N = 10)
[4] = multiple dosing, Part A and Part B, 80 mg bid (N = 10), arithmetic mean (SD)
[5] = multiple dosing, Part A, 40 mg bid (N = 3), arithmetic mean (SD)
[6] = multiple dosing, Part A, 160 mg qd (N = 15), arithmetic mean (SD)
[7] = multiple dosing, steady state, Part A and Part B, 80 mg bid (N = 10)
[8] = multiple dosing, steady state, Part A, 40 mg bid (N = 3)
[9] = multiple dosing, steady state, Part A, 120 mg bid (N = 6)
[10] = multiple dosing, steady state, Part A, 160 mg qd (N = 15)
[11] = single dosing, Part A and Part B, 80 mg bid cohort (N = 10)
[12] = single dosing, Part A, 40 mg bid cohort (N = 3)
[13] = single dosing, Part A, 120 mg bid cohort (N = 6)
[14] = single dosing, Part A, 160 mg qd cohort (N = 15)
[15] = single dosing, across the dosing levels

AZD4547
CLR (steady-state renal clearance) [1, 3]: 1.25 (±0.43) L/h and 1.248 (0.4322) L/h | fe (steady-state fraction of dose excreted in urine) [1, 3]: 3.66% and 3.662 (1.248) % | CLR (steady-state renal clearance) ([1]; Part A, 40 mg bid (N = 3)): 3.23 (±0.58) L/h and 3.229 (0.5796) L/h | fe (steady-state fraction of dose excreted in urine) ([1]; Part A, 40 mg bid (N = 3)): 3.92% and 3.921 (0.8283) % | CLR (steady-state renal clearance) ([1]; Part A, 120 mg bid (N = 6)): 2.32 (±0.63) L/h and 2.319 (0.6347) L/h | fe (steady-state fraction of dose excreted in urine) ([1]; Part A, 120 mg bid (N = 6)): 4.13% and 4.133 (1.676) % | CLR (steady-state renal clearance) ([1]; Part A, 160 mg qd (N = 15)): 1.38 (±0.59) L/h and 1.383 (0.5867) L/h | fe (steady-state fraction of dose excreted in urine) ([1]; Part A, 160 mg qd (N = 15)): 3.78% and 3.779 (2.477) % | Plasma concentrations compared with single dosing, on average ([2]; after qd dosing): 2.4 fold higher | CV% for AUCss ([2]; multiple dosing): 10.5–61.0% | CV% for Css,max ([2]; multiple dosing): 23.0–65.9% | Steady state reached by ([2]; multiple dosing (bid and qd)): ≤ 8 days | RAC (accumulation ratio; multiple-dose AUCss to single-dose AUC0–12h) [2, 4]: 4.87 (±2.42) and 4.870 (2.421) | Tc (temporal change; ratio of multiple-dose AUCss to single-dose AUC) [2, 4]: 1.914 (0.8593) | RAC (accumulation ratio; multiple-dose AUCss to single-dose AUC0–12h) [2, 5]: 3.34 (±1.98) and 3.336 (1.984) | Tc (temporal change; ratio of multiple-dose AUCss to single-dose AUC) [2, 5]: 1.37 (±1.01) and 1.372 (1.014) | Tc (temporal change; ratio of multiple-dose AUCss to single-dose AUC) ([2]; multiple dosing, Part A, 120 mg bid (N = 6), arithmetic mean (SD)): 1.61 (±1.41) and 1.610 (1.409) | RAC (accumulation ratio; multiple-dose AUCss to single-dose AUC0–24h) [2, 6]: 2.42 (±1.56) and 2.423 (1.555) | Tc (temporal change; ratio of multiple-dose AUCss to single-dose AUC) [2, 6]: 1.37 (±0.88) and 1.372 (0.8796) | Dose-normalized AUCss ([2]; multiple dosing, range across dosing levels): 11.4 to 29.7 ng·h/mL | AUC [2, 7]: 2379 (56.09) h · ng/mL | AUC0–t [2, 7]: 2099 (56.97) h · ng/mL | Cmax [2, 7]: 272.8 (60.13) ng/mL | Dose-normalized AUC [2, 7]: 29.74 (56.09) h · ng/mL | Dose-normalized Cmax [2, 7]: 3.410 (60.13) ng/mL | tmax [2, 7]: 2.950 h | AUC [2, 8]: 456.6 (10.46) h · ng/mL | AUC0–t [2, 8]: 408.3 (11.06) h · ng/mL | Cmax [2, 8]: 67.81 (23.00) ng/mL | Dose-normalized AUC [2, 8]: 11.41 (10.46) h · ng/mL | Dose-normalized Cmax [2, 8]: 1.695 (23.00) ng/mL | tmax [2, 8]: 2.920 h | AUC [2, 9]: 2072 (42.08) h · ng/mL | AUC0–t [2, 9]: 1808 (40.80) h · ng/mL | Cmax [2, 9]: 215.8 (36.43) ng/mL | Dose-normalized AUC [2, 9]: 17.27 (42.08) h · ng/mL | Dose-normalized Cmax [2, 9]: 1.799 (36.43) ng/mL | tmax [2, 9]: 3.930 h | AUC [2, 10]: 4134 (61.04) h · ng/mL | AUC0–t [2, 10]: 4134 (60.87) h · ng/mL | Cmax [2, 10]: 302.9 (65.89) ng/mL | Dose-normalized AUC [2, 10]: 25.84 (61.04) h · ng/mL | Dose-normalized Cmax [2, 10]: 1.893 (65.89) ng/mL | tmax [2, 10]: 3.960 h | Time of peak plasma concentrations post-dose ([2]; single and multiple dosing): 3 to 4 h | Terminal half-life ([2]; single and multiple dosing, biphasic decline): ~ 30 h | t1/2λz ([2]; single dosing, Part A and Part B, 80 mg bid cohort (N = 10), arithmetic mean (SD)): 28.82 (5.198) h | AUC [2, 11]: 1539 (53.28) h · ng/mL | AUC0–t [2, 11]: 1452 (50.71) h · ng/mL | Cmax [2, 11]: 88.41 (81.41) ng/mL | Dose-normalized AUC [2, 11]: 19.24 (53.28) h · ng/mL | Dose-normalized Cmax [2, 11]: 1.105 (81.41) ng/mL | tmax [2, 11]: 3.000 h | t1/2λz ([2]; single dosing, Part A, 40 mg bid cohort (N = 3), arithmetic mean (SD)): 22.42 (7.215) h | AUC0–t [2, 12]: 353.9 (71.52) h · ng/mL | Cmax [2, 12]: 24.30 (54.07) ng/mL | Dose-normalized Cmax [2, 12]: 0.6075 (54.07) ng/mL | tmax [2, 12]: 4.000 h | t1/2λz ([2]; single dosing, Part A, 120 mg bid cohort (N = 6), arithmetic mean (SD)): 33.46 (7.492) h | AUC [2, 13]: 2058 (116.6) h · ng/mL | AUC0–t [2, 13]: 1794 (124.1) h · ng/mL | Cmax [2, 13]: 99.78 (141.5) ng/mL | Dose-normalized AUC [2, 13]: 17.15 (116.6) h · ng/mL | Dose-normalized Cmax [2, 13]: 0.8315 (141.5) ng/mL | tmax [2, 13]: 2.990 h | t1/2λz ([2]; single dosing, Part A, 160 mg qd cohort (N = 15), arithmetic mean (SD)): 27.96 (4.214) h | AUC [2, 14]: 3417 (66.96) h · ng/mL | AUC0–t [2, 14]: 3055 (63.53) h · ng/mL | Cmax [2, 14]: 216.2 (68.30) ng/mL | Dose-normalized AUC [2, 14]: 21.36 (66.96) h · ng/mL | Dose-normalized Cmax [2, 14]: 1.351 (68.30) ng/mL | tmax [2, 14]: 2.930 h | CV% for AUC [2, 15]: 53.3–117% | CV% for Cmax [2, 15]: 54.0–142%
